Data taken from patent US20070077583A1, “Alpha enolase-directed diagnostics and therapeutics for cancer and chemotherapeutic drug resistance” (Aurelium BioPharma, Inc., priority 2005, published 2007).

System: PC-3 cells
Experiment: MTT cytotoxicity assay, PC-3 cells transfected with α-enolase siRNA
Type: cell-based

CC(=O)O[C@@]12CO[C@@H]1C[C@H](O)[C@@]1(C)C(=O)[C@H](O)C3=C(C)[C@@H](OC(=O)[C@H](O)[C@@H](NC(=O)OC(C)(C)C)c4ccccc4)C[C@@](O)([C@@H](OC(=O)c4ccccc4)[C@H]21)C3(C)C [Docetaxel]
combination with enolase siRNA in cell killing: synergistic
